# Screens (PubChem)
# Rango-impB inh: inhibitors of Rango-importin beta complex formation; Rango CFP/YFP FRET sensor + importin beta, 45 min; Q14974; 340,000 compounds, 0.031% hits; AID 540263; Potency, µM (highest dose often 92.2 µM), without a hit: at the top dose inhibition of complex formation; calls by dose curve;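 also: potency is read from the fitted curve at half-maximal effect; 0% = DMSO wells and 100% = buffer wells lacking importin beta; nearly all actives have a fitted effect of over 15% in size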
#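 FRET biosensor (snurportin 1 IBB flanked by EYFP and cerulean), 50 nM, with compound 5 min, then 0.125 microM importin beta in PBS, 1 mM DTT, 0.02% Tween-20, 0.1% BSA. CFP/YFP ratio read after 45 min at room temperature; pre-read flags interference.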
# Rango release inh: inhibitors of RanGTP-induced Rango-importin beta complex dissociation; O95149+P62826; Biochemical FRET Rango-importin beta, RanGTP-induced dissociation; Potency, µM (doses to about 46.1 µM), for the others: at the top dose activity change, negative = inhibition; 340,000 compounds, 0.071% hits; calls by dose curve; also: potency is read from the fitted curve at half-maximal effect; % of control where 0% means no effect; nearly all actives have a fitted effect of over 45% in size
#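 Rango FRET biosensor (snurportin-1 IBB flanked by N-terminal EYFP and C-terminal CFP10) at 0.1 uM, with 0.25 uM importin beta in PBS, 1mM DTT, 0.02% Tween-20, 0.1% BSA. 0.6 uM Ran, 2mM GTP and 0.2 uM RCC1 were then added for 45 min at room temperature. Inhibition read as loss of FRET rise.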
# PI5P4K alpha inh: PI5P4K alpha (human) kinase inhibition. P48426. PI5P4Kalpha enzyme, ADP-Glo luminescence, 60 min; stronger effect = lower value. max response, %. 330,000 compounds, 1.2% hits. AID 652105; active = max response of -50% or lower; inconclusive = between -30% and -50%; inactive = -30% or higher; also: value at the top dose of about 77 µM; % is scaled to controls: 0 for no effect and ±100 for the full control effect
#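 Luminescence from ADP-Glo served as readout of PI5P4Kalpha activity in a qHTS format. Reaction: enzyme, substrate, compound, ATP at 5 microM final, 60 min at RT.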
# PLK1 PBD inh: inhibitors of human PLK1 polo-box domain binding. Potency, µM, without a hit: max response, negative = inhibition, usual class: inhibitors. 360,000 compounds, 2.8% hits. P53350. Plk1 PBD binding of FITC phosphopeptide, fluorescence polarization; also: potency is read from the fitted curve at half-maximal effect; series mostly up to about 57 µM; % is scaled to controls: 0 for no effect and ±100 for the full control effect; nearly all actives have a fitted effect of over 65% in size
# VDR inhibitor: inhibitors of human vitamin D receptor | P11473 | VDR-SRC2-3 peptide fluorescence polarization, 2 h | Potency, µM, for inactives: max response, negative = inhibition, usual class: inhibitors | 400,000 compounds, 0.93% hits; also: potency is read from the fitted curve at half-maximal effect; % is scaled to controls: 0 for no effect and ±100 for the full control effect
#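 The screen uses fluorescence polarization to detect compounds that interfere with recruitment of the SRC2-3 coactivator peptide to VDR; plates are read after 2 h at room temperature.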
# KAT2A inh: GCN5L2 (KAT2A) acetyltransferase inhibition; GCN5L2 HAT assay, ThioGlo1 CoA-SH fluorescence; Potency, µM (top dose mostly 58.9 µM), for inactives: at the highest dose activity change, negative = inhibition, usual class: inhibitors; 390,000 compounds, 0.21% hits; AID 504327; also: potency is read from the fitted curve at half-maximal effect; % is scaled to controls: 0 for no effect and ±100 for the full control effect
#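 Compounds, pin-transferred from DMSO stocks, meet 20nM GCN5L2 for 15 min before the reaction begins with H3(1-25) peptide (75uM) and acetyl-CoA (70uM). Thiol-reactive ThioGlo1 reports CoA release over 20 min at room temperature.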
# Numbers without * were called inactive; ? = inconclusive; . = no result given; [ ] = remark or other dose. An excerpt weighted towards active compounds, which were near 3.6% of everything screened. Unless noted, calls follow the shape of the dose curve; as a rule, active = well fitted curve in the direction sought with a large enough effect; inconclusive = small, poorly fitted or top-dose-only effect, or another doubt; inactive = no such curve, though single readings can be large; an effect the other way counts as inactive or inconclusive.
(1) COP(=O)(OC)c1nc(-c2ccc([N+](=O)[O-])cc2)oc1N1CCCCC1
(2) Cc1ccc(CCNC(=O)C2CCCN(Cc3nc(-c4cccc(Cl)c4)oc3C)C2)cc1 (stereo not given)
(3) CC(C)[C@@]1(NC(=O)[C@@H]2C=C3c4cccc5[nH]cc(c45)C[C@H]3N(C)C2)O[C@@]2(O)[C@@H]3CCCN3C(=O)[C@H](Cc3ccccc3)N2C1=O
(4) CN1C[C@@H](C(=O)N[C@@]2(C)O[C@]3(O)C4CCCN4C(=O)[C@@H](Cc4ccccc4)N3C2=O)C=C2c3cccc4[nH]cc(c34)C[C@@H]21 (stereo not given in full)
(5) CC[C@@H](CO)Nc1nc(NCc2ccccc2)c2ncn(C(C)C)c2n1
(6) CCn1c(O)c(C=Nc2ccc(N3CCOCC3)c(Br)c2)c(=O)n(CC)c1=S
(7) CCn1c(O)c(C=Nc2ccc(N3CCOCC3)cc2)c(=O)n(CC)c1=S
(8) O=c1c2ccccc2nc(/C=C/c2ccccc2O)n1-c1ccc(Br)cc1
assay / compound	1	2	3	4	5	6	7	8
Rango-impB inh	29µM*	.	.	.	.	?	?	.
Rango release inh	5%	.	.	.	.	-7%	?	.
PI5P4K alpha inh	-1	.	.	.	.	.	-3	.
PLK1 PBD inh	5%	.	.	.	.	-1%	21µM*	.
VDR inhibitor	-8%	89µM*	.	14µM*	-9%	-11%	-20%	-19%
KAT2A inh	-4%	4%	-8%	?	?	?	?	-2%

# Some of the entries so far, with values under each structure.
# Sequence of screens: Rango-impB inh	Rango release inh	PI5P4K alpha inh	PLK1 PBD inh	VDR inhibitor	KAT2A inh
3	CC(C)[C@@]1(NC(=O)[C@@H]2C=C3c4cccc5[nH]cc(c45)C[C@H]3N(C)C2)O[C@@]2(O)[C@@H]3CCCN3C(=O)[C@H](Cc3ccccc3)N2C1=O
  .	.	.	.	.	-8%
4	CN1C[C@@H](C(=O)N[C@@]2(C)O[C@]3(O)C4CCCN4C(=O)[C@@H](Cc4ccccc4)N3C2=O)C=C2c3cccc4[nH]cc(c34)C[C@@H]21 (stereo not given in full)
  .	.	.	.	14µM*	?
5	CC[C@@H](CO)Nc1nc(NCc2ccccc2)c2ncn(C(C)C)c2n1
  .	.	.	.	-9%	?
6	CCn1c(O)c(C=Nc2ccc(N3CCOCC3)c(Br)c2)c(=O)n(CC)c1=S
  ?	-7%	.	-1%	-11%	?

# The list goes on:
(9) CC(C)Oc1ccc(CNC(=O)Oc2ccccc2)cc1
(10) O=C1NS(=O)c2cc([N+](=O)[O-])cc([N+](=O)[O-])c21 (stereo not given)
(11) CCOC(=O)c1c(NC(NC(=O)CF)C(Cl)(Cl)Cl)sc2c1CCCC2 (stereo not given)
(12) CCOC(=O)c1c(NC(=O)c2c(N)n(CCCOC)c3nc4ccccc4nc23)sc2c1CCCC2
(13) CCOC(=O)CC(SP(=S)(OC)OC)C(=O)OCC (stereo not given)
(14) Cn1ccnc1P(=S)(c1nccn1C)N1CCOCC1
(15) CCc1nnc(NS(=O)(=O)c2ccc(N=Cc3c(O)n(-c4ccc(Cl)cc4)c(=O)[nH]c3=O)cc2)s1
(16) CNS(=O)(=O)c1ccc(N=Cc2c(O)n(-c3ccc(C)cc3)c(=O)[nH]c2=O)cc1
assay / compound	9	10	11	12	13	14	15	16
Rango-impB inh	5%	1%	1%	5%	.	4%	2%	4%
Rango release inh	16%	6%	32%	2%	.	1%	8%	-10%
PI5P4K alpha inh	-6	-24	-18	.	.	.	?	?
PLK1 PBD inh	?	24µM*	12µM*	-7%	.	27µM*	27µM*	2%
VDR inhibitor	-13%	?	45µM*	-1%	28µM*	?	-9%	25%
KAT2A inh	?	1%	-7%	0%	?	-5%	-2%	-11%

(17) O=C(Nc1cccc(F)c1)N1CC2(CCN(C(=O)Oc3ccccc3)CC2)C1
(18) O=C(Nc1cccc(F)c1)N1CC2(CCNCC2)C1
(19) COc1ccc(C=C2C(=O)N(C)C(=O)N(C)C2=O)cc1CSc1ccccn1
(20) COc1ccc([N+](=O)[O-])cc1CSc1ccccn1
(21) COc1ccc(N2C(=O)NC(=O)/C(=C\c3cn(CC(=O)N4CCOCC4)c4ccccc34)C2=O)c(OC)c1
(22) COCCNC(=O)Cn1cc(/C=C2\C(=O)NC(=O)N(c3cccc(C)c3C)C2=O)c2ccccc21
(23) CN1CCCCC1c1cccnc1 (stereo not given)
(24) CC1=C(C(=O)O)N2C(=O)C(NC(=O)c3nn(C)cc3[N+](=O)[O-])C2SC1 (stereo not given)
assay / compound	17	18	19	20	21	22	23	24
Rango-impB inh	.	.	0%	-1%	-2%	-3%	.	3%
Rango release inh	.	.	-7%	0%	-17%	1%	.	2%
PI5P4K alpha inh	.	.	?	-5	1	5	.	-17
PLK1 PBD inh	.	.	6µM*	?	11µM*	3.8µM*	.	34µM*
VDR inhibitor	-7%	40µM*	79µM*	-26%	?	?	1%	?
KAT2A inh	-14%	-4%	16%	-9%	-5%	-4%	-8%	-1%

(25) Clc1ccc(C2=CCC[C@H]3CC[C@@H]2N3)cn1
(26) CN(C)[C@@H]1C(=O)C(C(N)=O)=C(O)[C@@]2(O)C(=O)C3=C(O)c4c(O)cccc4[C@@](C)(O)C3C[C@@H]12 (stereo not given in full)
(27) CN1[C@@H]2CC[C@H]1CC(OC(c1ccc(F)cc1)c1ccc(F)cc1)C2 (stereo not given in full)
(28) Nc1c(C(=O)NCc2ccco2)c2nc3ccccc3nc2n1Cc1ccc(F)cc1
(29) CCCCn1c(N)c(C(=O)NCc2cccs2)c2nc3ccccc3nc21
(30) Nc1c(C(=O)NCc2ccco2)c2nc3ccccc3nc2n1Cc1ccccc1
(31) Nc1c(C(=O)NCCCc2ccccc2)c2nc3ccccc3nc2n1Cc1cccs1
(32) CCC1(CC)CCNC1=O
assay / compound	25	26	27	28	29	30	31	32
Rango-impB inh	.	?	.	?	?	?	?	.
Rango release inh	.	-21%	.	?	?	?	?	.
PI5P4K alpha inh	.	-11	.	?	.	-8	.	.
PLK1 PBD inh	.	-15%	.	27µM*	-10%	-13%	-11%	.
VDR inhibitor	?	.	-17%	-9%	89µM*	-20%	79µM*	12%
KAT2A inh	9%[0.501 µM]	-9%	-6%	-14%	-14%	-23%	-7%	1%

(33) CCCCCc1cc(O)c2c(c1)OC(C)(C)C1CC=C(C)CC21 (stereo not given)
(34) CCC(=O)OC1(c2ccccc2)CCN(C)CC1C (stereo not given)
(35) O=C(CC[N+](=O)[O-])OCC1OC(O)C(OC(=O)CC[N+](=O)[O-])[C@@H](OC(=O)CC[N+](=O)[O-])C1OC(=O)CC[N+](=O)[O-] (stereo not given in full)
(36) CN1CC[C@@]2(C)c3cc(O)ccc3N(C)C12 (stereo not given in full)
(37) CN1CCN(Cc2cc(C(C)(C)C)c(O)c(C(C)(C)C)c2)CC1
(38) CC(C)(C)c1ccc(O)c(CN2CCN(c3ccccc3)CC2)c1
(39) O=C(Nc1cc(C(F)(F)F)cc(C(F)(F)F)c1)c1cc(Cl)ccc1O
(40) CCN(C(=O)Oc1ccccc1)c1ccc(C(O)(C(=O)OC)C(F)(F)F)cc1 (stereo not given)
assay / compound	33	34	35	36	37	38	39	40
Rango-impB inh	.	0%	.	.	-2%	-1%	.	5%
Rango release inh	.	-1%	.	.	-4%	2%	.	-7%
PI5P4K alpha inh	.	1	.	.	-8	12	.	2
PLK1 PBD inh	.	24µM*	.	.	24µM*	-8%	.	3%
VDR inhibitor	?	-24%	5%	?	-29%	18%	3%	3%
KAT2A inh	-15%	-2%	1%	-5%	-9%[0.501 µM]	4%	?	-2%

(41) CCN(c1ccc(C(O)(C(=O)OC)C(F)(F)F)cc1)S(=O)(=O)c1ccccc1 (stereo not given)
(42) CC1=C(O)C(=O)[C@@H]2O[C@@H]2C1=O
(43) CCCCCCCCC(=O)NCc1ccc(O)c(OC)c1
(44) CCCCC/C=C\C/C=C\C/C=C\C/C=C\CCCC(=O)NCc1ccc(O)c(OC)c1
assay / compound	41	42	43	44
Rango-impB inh	3%	.	3%	.
Rango release inh	4%	.	14%	.
PI5P4K alpha inh	1	.	-8	.
PLK1 PBD inh	27µM*	.	-11%	.
VDR inhibitor	3%	?	-15%	45µM*
KAT2A inh	-3%	-3%	-5%	-13%
